# Yeast mating assay 1: variants of the scFv Ab-14

Reference: Engelhart et al. 2022, doi:10.1038/s41597-022-01779-4. File: FLAb, binding data.

The target is the same throughout: PDVDLGDISGINAS, from the HR2 region of SARS-CoV-2 spike.

Each scFv is VH, a 15-residue (Gly4Ser)3 linker, VL, as in the parent Ab-14, and differs from it in the CDRs of the heavy chain only.
VH: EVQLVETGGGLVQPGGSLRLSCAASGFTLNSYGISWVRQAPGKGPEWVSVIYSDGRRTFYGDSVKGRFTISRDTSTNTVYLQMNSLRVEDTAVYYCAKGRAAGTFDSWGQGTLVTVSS
VL: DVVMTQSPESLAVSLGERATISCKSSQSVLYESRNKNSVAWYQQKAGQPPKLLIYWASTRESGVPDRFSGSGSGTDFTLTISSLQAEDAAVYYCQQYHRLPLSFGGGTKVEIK

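Phage display of a naive human antibody library on the peptide gave the parent. The library (AAYL49) carries one to three amino acid substitutions per variant, with no insertions or deletions. In AlphaSeq, yeast of one mating type display the scFv and yeast of the other type display the target. Pairs that bind mate more often; barcode pairs of the diploids are counted by sequencing. Scores were corrected for input abundance and mapped to Kd with protein pairs of known affinity run in the same pool. Mating was done three times.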

Positions count from residue 1 of the parent VH; F27Y puts Y in place of F. Scale: log10 of Kd in nM, estimated from mating counts; low values are strong binders. A mean of the replicates is given; it leaves out those without a signal. Where no diploid with the target was found in any replicate, the entry reads "not detected": below detection, most likely a poor binder, though not proof of it. Background: pairings of library AAYL49 with three empty control strains gave a value in 15% of cases (median 4.06, 5th percentile 2.83). Values in that range, when seen in few replicates, are hard to tell from nonspecific mating.

changes,mean log10 Kd (nM),replicates with signal
F27Y G55L R56I,not detected,0 of 3
T28P D54T,4.26,2 of 3
S31F Y32V D106K,not detected,0 of 3
G33W V50E G61W,3.71,1 of 3
R56Q K65N G103M,not detected,0 of 3
S35M A101F S107Q,not detected,0 of 3
N30T A102E S107F,1.24,3 of 3
G26T F59I G99H,4.17,1 of 3
N30T D54S G61T,2.94,1 of 3
T28I S35E G103S,4.96,2 of 3
F59R R100C,3.01,2 of 3
R57Y G99V S107A,4.58,1 of 3
F27D G33I I51F,not detected,0 of 3
N30M Y52L T58D,3.80,2 of 3
Y32D Y52V G61A,not detected,0 of 3
G33Y G99T,4.69,2 of 3
V50N R56A R57K,3.91,1 of 3
G26P F59N K65P,not detected,0 of 3
Y52H G103K D106P,3.10,1 of 3
F59K V64P S107R,4.46,3 of 3
F27H I34H G61A,not detected,0 of 3
Y32V R56K K65E,2.59,3 of 3
F27K Y32G F105S,not detected,0 of 3
Y52L R56W A102G,not detected,0 of 3
N30M R100A,1.16,3 of 3
T28G R56W D106C,4.21,1 of 3
Y32A Y52D R100A,6.70,1 of 3
A101V G103F,not detected,0 of 3
I51Y S53A S107C,not detected,0 of 3
T58V F59S S63V,1.78,3 of 3
I34W S35I D106M,not detected,0 of 3
F59C G61I G99S,3.58,1 of 3
S63A R100Q,0.55,3 of 3
S53A F105N D106K,-0.18,3 of 3
L29G A102C F105I,not detected,0 of 3

Continued, with the values leading:

mean log10 Kd (nM),replicates with signal,changes
3.82,2 of 3,D54G F59C S63P
not detected,0 of 3,S63E G103T
not detected,0 of 3,I34N S63D F105S
not detected,0 of 3,F27T G61A G103T
not detected,0 of 3,S35K G99Q S107I
4.40,2 of 3,I51A R56C
4.79,3 of 3,V50G S53T G99L
4.54,1 of 3,Y52F G55P G61T
not detected,0 of 3,L29A S53G R100P
4.28,1 of 3,T28K Y60P G61Q
not detected,0 of 3,R56L A102D T104L
not detected,0 of 3,Y32P I34A R100A
4.05,1 of 3,I34H G99Q R100N
3.33,3 of 3,R57Q F59G
4.06,2 of 3,R57A V64L D106P
not detected,0 of 3,I34H G55T A102Q
4.05,1 of 3,I51V F59G G61L
4.83,1 of 3,Y52P F105M D106Q
not detected,0 of 3,I51E Y52V F59I
4.45,2 of 3,S31Q S53K F105L
4.85,1 of 3,N30C V50H F105S
4.12,1 of 3,I34D R57F R100A
2.49,3 of 3,N30D I51A G61A
not detected,0 of 3,V50Q A101F S107L
4.96,3 of 3,G61W D62Q A101Q
4.58,2 of 3,S35M R57A D62I
not detected,0 of 3,S31L S35Q R57E
not detected,0 of 3,Y60I G99Q S107H
2.48,3 of 3,N30P T104H D106M
2.23,1 of 3,Y32T V64Q T104M
not detected,0 of 3,I34L Y52R D54L
4.19,2 of 3,G26H N30I F59Q
not detected,0 of 3,I34G I51S
3.96,1 of 3,Y32K S53V G55F
not detected,0 of 3,Y32I G61N D106Q
not detected,0 of 3,F59V G99A

In this assay the parent's reference entry averaged 0.65; its copy inside this library read 4.11 (one replicate of three).